The values that follow come from article PMC10916402, “Meropenem-ANT3310, a unique β-lactam-β-lactamase inhibitor combination with expanded antibacterial spectrum against Gram-negative pathogens including carbapenem-resistant Acinetobacter baumannii” (Antimicrobial Agents and Chemotherapy, 2024).

The chains behind the UniProt entries cited, without tags or fusion partners. Residues count along the entry.
UniProt Q9F663, 25-293 limits assumed: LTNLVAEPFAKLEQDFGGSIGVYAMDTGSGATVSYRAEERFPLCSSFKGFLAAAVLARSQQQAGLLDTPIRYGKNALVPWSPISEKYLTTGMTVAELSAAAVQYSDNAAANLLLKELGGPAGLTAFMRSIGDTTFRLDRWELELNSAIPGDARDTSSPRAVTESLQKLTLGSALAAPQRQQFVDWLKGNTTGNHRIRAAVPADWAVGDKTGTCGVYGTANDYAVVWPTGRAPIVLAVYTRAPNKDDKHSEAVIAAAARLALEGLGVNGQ

For orientation: IC50 means the concentration needed to halve the response being measured. Low values mean greater potency, high ones weaker potency.

This assay concerns the target KPC-2 (Klebsiella pneumoniae, UniProt Q9F663). The assay can be described thus: In vitro SBL inhibition assay (nitrocefin hydrolysis), IC50. The format is biochemical. The protocol: Nitrocefin (Sigma-Aldrich, St Louis, MO, USA), a chromogenic cephalosporin antibiotic (λ, 482 nm; εM, 15,000 M^−1.cm^−1), was used as a reporter substrate at 100 µM for KPC-2, OXA-23, and OXA-48, at 200 µM for OXA-24 and OXA-51, and at 50 µM for OXA-58. Enzymes were preincubated in the presence of varying concentrations of each compound (0.006 to 3000 nM, diluted twofold in dimethyl sulfoxide (DMSO) for KPC-2, OXA-23, and OXA-48 assays and 0.51 to 10,000 nM diluted threefold in DMSO for OXA-24, OXA-51, and OXA-58) for 10 min at 30°C. Nitrocefin was then added and its hydrolysis by the uninhibited enzyme fraction was followed at an absorbance wavelength of 482 nm for 10 min at 30°C using Envision UV fluorescence plate reader (Perkin Elmer, Waltham, MA, USA). Hydrolysis rate data were used to determine inhibitory activities, expressed in IC50 values [corresponding to the compound concentration (µM) required to inhibit 50% of enzymatic reaction].

SMILES strings stand for the structures.

In the case of `O=C(NC1CCNCC1)[C@@H]1CC[C@@H]2CN1C(=O)N2OS(=O)(=O)O` (relative stereo) [Rel, relebactam], the midpoint of inhibition, the IC50, lay at 17.1 nM.
